Measured values: US8816078B2, “Acidic gas removal by aqueous amine solvents” (Board of Regents, The University of Texas System, priority 2010, dated 2014)

Assay: Thermal degradation in sealed stainless steel cylinders at 150° C., loss of original amine over time
Type: physicochemical
Details: 4 weeks, α 0.3 moles CO2 per mole alkalinity
Description: Samples of each solution were contained in stainless steel, well-sealed cylinders and placed in a forced-convection oven for extended periods of time. The loss of the original amine is tracked over time to determine the rate of thermal degradation.
The thermal degradation of 8 m 1-MPZ at 150° C. was studied. The main degradation products are PZ, 1,4-DMPZ, formyl amides, and formate.
The thermal degradation of a blend of 4 m PZ and 4 m 1-MPZ at 150° C. was previously studied. […] Based on the results of the 8 m 1-MPZ experiment discussed above, 1,4-DMPZ was expected to be produced as a degradation product.
Solutions with varying compositions were placed in thermal cylinders at 150° C. for up to 15 weeks. At this temperature, some degradation will occur, but the conversion between PZ, 1-MPZ, and 1,4-DMPZ should be able to be observed. Three starting solutions were used: 5 m PZ+2 m 1-MPZ+1 m 1,4-DMPZ (5/2/1), 5 m PZ+2.5 m 1-MPZ+0.5 m 1,4-DMPZ (5/2.5/0.5), and 5 m PZ+1.5 m 1-MPZ+[…]. To establish the blend concentrations, it was originally hypothesized that the equilibrium concentration would be 5/2/1. Therefore, that blend, as well as two blends with increased or decreased 1-MPZ concentrations were used and the concentration of 1,4-DMPZ was adjusted to maintain a total concentration of 8 m.

For `CC1CNCCN1` (racemic) [2MPZ, 2-methyl piperazine], the “loss of the initial amine” value was “about 6%”.
